Source: ChEMBL document CHEMBL1145211, “Substituted 5,5'-diphenyl-2-thioxoimidazolidin-4-one as CB1 cannabinoid receptor ligands: synthesis and pharmacological evaluation” (J Med Chem, 2005)

By UniProt entry, the sequences of proteins in these tests, tags left out.
UniProt P21554, whole entry: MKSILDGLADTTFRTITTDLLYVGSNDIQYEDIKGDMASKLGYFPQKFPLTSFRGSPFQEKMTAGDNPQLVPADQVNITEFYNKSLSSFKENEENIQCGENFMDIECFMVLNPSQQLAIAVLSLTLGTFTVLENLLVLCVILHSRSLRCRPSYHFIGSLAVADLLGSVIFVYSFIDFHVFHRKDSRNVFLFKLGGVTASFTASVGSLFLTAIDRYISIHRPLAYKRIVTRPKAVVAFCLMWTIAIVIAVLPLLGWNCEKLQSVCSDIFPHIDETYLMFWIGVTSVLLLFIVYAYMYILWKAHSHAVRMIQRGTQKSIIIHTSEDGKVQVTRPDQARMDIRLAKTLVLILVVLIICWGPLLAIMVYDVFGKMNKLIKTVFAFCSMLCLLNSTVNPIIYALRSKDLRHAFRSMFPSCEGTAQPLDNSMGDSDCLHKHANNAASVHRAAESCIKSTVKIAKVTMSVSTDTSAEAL

Target: Cannabinoid receptor 1 (Homo sapiens, UniProt P21554)
Test: biochemical
Type: cell-based, CHO

`C=CCN1C(=O)NC(c2ccc(I)cc2)(c2ccc(I)cc2)C1=O` gave a Ki of 1740 nM.
